Patent US20210230134A1, “VITAMIN E DERIVATIVES AND THEIR USE AS MULTI-SCALE IMAGING AGENTS” (EXACT DELIVERY INC., priority 2018, published 2021)

Chains of the proteins cited; added tags and fusions are not shown.
UniProt P49638, whole entry: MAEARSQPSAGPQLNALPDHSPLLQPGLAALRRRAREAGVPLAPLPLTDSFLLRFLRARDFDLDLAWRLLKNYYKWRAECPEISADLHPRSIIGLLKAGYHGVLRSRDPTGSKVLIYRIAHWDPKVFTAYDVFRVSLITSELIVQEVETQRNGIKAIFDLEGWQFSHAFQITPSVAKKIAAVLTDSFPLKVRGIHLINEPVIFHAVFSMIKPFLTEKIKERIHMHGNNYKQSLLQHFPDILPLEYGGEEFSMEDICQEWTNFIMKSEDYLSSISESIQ

How the values were obtained:
C2C12 mouse myoblasts = assay: MTT tetrazolium reduction viability assay, C2C12 myoblasts; conditions: cultured myoblasts; concentrations over five orders of magnitude
Experimental: (§1) C2C12 mouse myoblasts and mouse embryonic fibroblasts (MEFs) were cultured in DMEM supplemented with 10% (v/v) FBS, 4500 mg/L glucose, 4 mM L-glutamine, 1 mM sodium pyruvate, 2% (v/v) MEM nonessential amino acid solution, and penicillin (50 I.U./mL)/streptomycin (50 μg/mL) solution (complete media). Cells were cultured in a humidified 5% CO2 atmosphere within a Thermo Forma Series II water-jacketed CO2 incubator maintained at 37° C. Cells were transferred to fresh 96- or 6-well plates (2,000 cells/well & 60,000 cells/well, respectively) in the evening prior to commencing tocopherol treatments.
Each tocopherol was dissolved in sterile 100% DMSO to yield a 1 M stock solution. Less concentrated stock solutions were subsequently prepared using ten-fold serial dilutions. All tocopherol solutions were stored at −20° C. To treat cultured cells, media was replaced with complete media containing freshly-added tocopherol; the final amount of vehicle (DMSO) for all concentrations tested was 0.1% (v/v).
Media was discarded, wells were washed once with phenol red-free complete culture media, and 100 μL/well phenol red-free complete culture media containing 0.45 mg/mL MTT was added. […] Plates were incubated at room temperature in darkness for 2 h before recording absorbance at 570 nm using a Bio-Tek PowerWave Microplate UV-Vis spectrophotometer (Winooski, Vt., USA). […]

MEFs = assay: Cellular uptake of TB-toc by live-cell fluorescence imaging
Experimental: as §1
Fluorescence imaging of live cells was performed using Zeiss Axio Observer.Z1 inverted light/epifluorescence microscope equipped with ApoTome.2 optical sectioning, a Plan-Apochromat 63x/1.40 Oil DIC M27 objective lens, and a Hamamatsu ORCA-Flash4.0 V2 digital camera. Both the intensity of fluorescence illumination achieved via an X-Cite 120 LED light source and camera exposure times were held constant between experiments. BODIPY fluorescence was viewed using excitation and emission wavelength filter sets of 540-552 nm and 590-660 nm, respectively, with set excitation and emission wavelengths of 587 nm and 610 nm, respectively (Zeiss Item #411003-0010-000). Z-stack series consisted of approximately 20-40 slices taken at 0.32 nm intervals and were rendered into 2D maximum intensity projections using the “extended depth of focus” processing tool using Zeiss Zen 2 (blue edition) microscopy software. […] Fluorescence intensity was analyzed from the microscope images using the ImageJ software.
TB-toc was delivered to the cells using two methods, in DMSO stock solutions and in LUVs. […] Top row are fluorescence images (Ex. 587 nm; Em. 610 nm); the bottom row are the brightfield images. (B) Fluorescence intensity of TB-toc in C2C12 cells delivered via DMSO and LUVs after 40 min. of incubations. […] (C) The relative fluorescence intensity of TB-toc introduced to MEF cells via LUVs (red circles) and DMSO (black squares) and introduced to C2C12 cells via LUVs (blue triangles).

[1] = biological target: α-TTP (α-tocopherol transfer protein) (Homo sapiens, UniProt P49638); assay: Fluorescence titration binding assay with α-TTP; conditions: read-out: dissociation constant Kd; stock solutions in EtOH or dioxane; 0.4 μM α-TTP in TKE buffer pH 7.4
Experimental: Assays were performed in triplicate and errors bars show standard errors from the mean (SEM). The errors on the no-protein control are smaller than the symbol size used

[2] = system: McA-RH7777-TetOn-TTP cells; assay: α-TTP facilitated secretion of TBtoc, fluorescence microscopy; conditions: 15 μM serum-complexed, 18 hours loading; four hour secretion; Dox-induced TTP
Experimental: A) Representative images of McA-RH7777-TetOn-TTP cells induced to express TTP with doxycycline (1 μg/ml Dox) or treated with vehicle control (1 μg/ml Dox) and loaded with 15 μM of fetal bovine serum complexed 2 for 18 hours. After the TBtoc was removed by washing, a four hour “secretion” phase was followed by microscopic visualization of the fluorescence. B) Fluorescence was quantified in multiple fields and normalized to cell protein content. Shown are averages and standard deviations. Asterisks denote significant difference (P>0.05) between the TTP-expressing and non-expressing cells, as determined by Student's t-test.

## Cc1cc(/C=C/c2ccc(C[C@]3(C)CCc4c(C)c(O)c(C)c(C)c4O3)s2)n2c1C=C1C=CC=[N+]1[B-]2(F)F
C2C12 mouse myoblasts
  viability response to TB-toc (MTT): respond
MEFs; delivered in DMSO
  time to complete uptake: 30 min
MEFs; delivered to MEFs via LUVs
  distress to the cells during uptake: no observable distress
  time to completed uptake: approximately 30 minutes
[1]
  Kd: 5 to 10 nM
[2]
  cell fluorescence after secretion phase, TTP-expressing vs non-expressing cells: significant difference
